Data: patent US10351573B2, “Benzoic acid, benzoic acid derivatives and heteroaryl carboxylic acid conjugates of hydrocodone, prodrugs, methods of making and uses thereof” (KemPharm, Inc., priority 2009, dated 2019)

Assay: Water solubility / feasibility of intranasal or intravenous dosing

Substance: salicylate hydrocodone [Compound 2-OH-Bz-HC]
- water solubility (in words): hydrophobic
